Experimental findings from ChEMBL document CHEMBL1146760, “3,4-Dihydronaphthalen-1(2H)-ones: novel ligands for the benzodiazepine site of alpha5-containing GABAA receptors” (Bioorg Med Chem Lett, 2004) are described below.

Amino acid sequences for entries named in this document (tags omitted). Residues count along the entry.
UniProt P14867, 28-456 limits assumed: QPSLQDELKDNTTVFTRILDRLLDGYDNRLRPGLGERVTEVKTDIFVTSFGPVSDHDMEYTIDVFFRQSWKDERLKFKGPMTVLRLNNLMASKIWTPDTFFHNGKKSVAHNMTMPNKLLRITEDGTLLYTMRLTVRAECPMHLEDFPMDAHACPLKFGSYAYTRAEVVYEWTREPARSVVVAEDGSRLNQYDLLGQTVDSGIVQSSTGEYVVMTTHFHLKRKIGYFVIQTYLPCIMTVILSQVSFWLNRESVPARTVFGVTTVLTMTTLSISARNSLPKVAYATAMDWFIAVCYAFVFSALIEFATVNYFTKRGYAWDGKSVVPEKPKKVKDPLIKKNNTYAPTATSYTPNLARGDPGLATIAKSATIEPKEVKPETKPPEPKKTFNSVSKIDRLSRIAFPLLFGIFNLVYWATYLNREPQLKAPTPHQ
UniProt P18507, 40-475 limits assumed: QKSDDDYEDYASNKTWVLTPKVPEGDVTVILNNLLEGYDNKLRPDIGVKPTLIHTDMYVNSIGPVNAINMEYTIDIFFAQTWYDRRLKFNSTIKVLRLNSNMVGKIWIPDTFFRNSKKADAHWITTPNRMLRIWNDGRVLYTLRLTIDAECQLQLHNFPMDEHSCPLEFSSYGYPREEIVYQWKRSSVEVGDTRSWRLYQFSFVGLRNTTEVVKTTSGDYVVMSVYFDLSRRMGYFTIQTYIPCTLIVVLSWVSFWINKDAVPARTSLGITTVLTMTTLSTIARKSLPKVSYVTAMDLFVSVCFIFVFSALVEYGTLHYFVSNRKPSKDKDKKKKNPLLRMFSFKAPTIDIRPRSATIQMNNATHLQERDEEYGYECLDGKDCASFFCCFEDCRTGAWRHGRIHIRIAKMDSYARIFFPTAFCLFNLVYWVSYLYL
UniProt P28472, 26-473 limits assumed: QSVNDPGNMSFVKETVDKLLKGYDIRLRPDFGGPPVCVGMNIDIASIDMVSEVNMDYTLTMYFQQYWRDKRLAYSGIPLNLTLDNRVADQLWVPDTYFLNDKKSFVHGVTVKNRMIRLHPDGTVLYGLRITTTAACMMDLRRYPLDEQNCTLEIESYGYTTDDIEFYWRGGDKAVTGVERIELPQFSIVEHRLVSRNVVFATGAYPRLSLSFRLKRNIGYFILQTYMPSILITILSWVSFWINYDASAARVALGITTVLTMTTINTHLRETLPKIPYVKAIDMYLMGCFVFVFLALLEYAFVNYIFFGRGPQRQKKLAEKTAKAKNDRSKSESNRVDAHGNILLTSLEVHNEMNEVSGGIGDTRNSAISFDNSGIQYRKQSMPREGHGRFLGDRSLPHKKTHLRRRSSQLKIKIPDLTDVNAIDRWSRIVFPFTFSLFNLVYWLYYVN
UniProt P34903, 29-492 limits assumed: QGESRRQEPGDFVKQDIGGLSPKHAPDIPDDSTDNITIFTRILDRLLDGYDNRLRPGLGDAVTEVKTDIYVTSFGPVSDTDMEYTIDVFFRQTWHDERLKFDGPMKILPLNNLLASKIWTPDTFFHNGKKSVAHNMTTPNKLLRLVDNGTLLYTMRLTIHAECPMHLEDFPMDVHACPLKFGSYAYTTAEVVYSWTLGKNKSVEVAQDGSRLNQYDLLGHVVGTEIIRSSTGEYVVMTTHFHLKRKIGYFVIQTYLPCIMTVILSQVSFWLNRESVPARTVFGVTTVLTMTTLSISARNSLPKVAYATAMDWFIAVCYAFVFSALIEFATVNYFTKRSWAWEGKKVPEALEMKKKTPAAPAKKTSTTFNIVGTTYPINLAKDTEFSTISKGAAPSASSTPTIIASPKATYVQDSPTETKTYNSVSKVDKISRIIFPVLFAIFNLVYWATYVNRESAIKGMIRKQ
UniProt P31644, 32-462 limits assumed: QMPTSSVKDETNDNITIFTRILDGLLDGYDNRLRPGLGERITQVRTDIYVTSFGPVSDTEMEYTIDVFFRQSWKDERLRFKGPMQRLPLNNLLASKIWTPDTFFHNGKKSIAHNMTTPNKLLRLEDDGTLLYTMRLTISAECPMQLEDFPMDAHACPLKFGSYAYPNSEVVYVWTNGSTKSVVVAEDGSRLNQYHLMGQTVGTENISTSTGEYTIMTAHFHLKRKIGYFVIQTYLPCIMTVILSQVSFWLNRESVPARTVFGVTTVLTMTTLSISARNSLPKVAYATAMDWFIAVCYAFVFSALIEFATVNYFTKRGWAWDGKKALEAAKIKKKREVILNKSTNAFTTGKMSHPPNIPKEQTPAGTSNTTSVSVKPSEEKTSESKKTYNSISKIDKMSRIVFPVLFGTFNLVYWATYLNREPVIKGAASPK
UniProt P47869, 29-451 limits assumed: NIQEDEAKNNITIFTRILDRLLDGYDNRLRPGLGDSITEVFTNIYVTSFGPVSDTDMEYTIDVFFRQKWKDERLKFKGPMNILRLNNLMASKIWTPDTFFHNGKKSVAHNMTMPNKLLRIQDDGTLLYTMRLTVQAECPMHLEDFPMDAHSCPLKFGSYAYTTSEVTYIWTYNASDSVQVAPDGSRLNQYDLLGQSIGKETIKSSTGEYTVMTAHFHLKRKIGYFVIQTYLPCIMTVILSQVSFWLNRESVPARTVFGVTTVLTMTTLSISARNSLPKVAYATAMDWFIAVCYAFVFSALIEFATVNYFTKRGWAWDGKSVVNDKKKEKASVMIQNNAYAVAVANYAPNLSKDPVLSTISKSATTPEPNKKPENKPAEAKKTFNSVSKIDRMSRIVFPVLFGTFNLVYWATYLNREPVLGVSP

Usually Ki stands for the equilibrium dissociation constant of an inhibitor or competing ligand from its target.

In experiment [1] the target is GABA-A receptor; alpha-1/beta-3/gamma-2 (Homo sapiens, UniProt P14867+P18507+P28472). The experiment can be described thus: Inhibition of [3H]-Ro- 15-1788 binding to recombinant human gamma-aminobutyric-acid A receptor alpha-1-beta-3-gamma-2.
Experiment [2] concerns the target GABA-A receptor; alpha-3/beta-3/gamma-2 (Homo sapiens, UniProt P18507+P28472+P34903). Kind of experiment: Inhibition of [3H]-Ro- 15-1788 binding to recombinant human gamma-aminobutyric-acid A receptor alpha-3-beta-3-gamma-2.
The target of experiment [3] is GABA-A receptor; alpha-5/beta-3/gamma-2 (Homo sapiens, UniProt P18507+P28472+P31644). Kind of experiment: Inhibition of [3H]-Ro- 15-1788 binding to recombinant human gamma-aminobutyric-acid A receptor alpha-5-beta-3-gamma-2.
The target of experiment [4] is GABA-A receptor; alpha-2/beta-3/gamma-2 (Homo sapiens, UniProt P18507+P28472+P47869). The experiment can be described thus: Inhibition of [3H]-Ro- 15-1788 binding to recombinant human gamma-aminobutyric-acid A receptor alpha-2-beta-3-gamma-2.

In the case of `CNC1=Nc2ccc(Cl)cc2C(c2ccccc2)=[N+]([O-])C1`, the Ki in experiment [1] is 605 nM; in experiment [2], 471 nM; in experiment [3] it was 368 nM; in experiment [4], 392 nM.
